According to patent US11717499B2 (priority 2011, dated 2023):
Entries after “also recorded” stand apart in the source; their conditions may differ.

Test system: IL-10
Experiment: Immunoblot of IL-10 expression in placental tissue
Type: in vivo
Conditions: DMA rescued mice vs LPS alone, p<0.001
Experimental: Frozen placentas and uteri from each group were allowed to thaw on ice. Each tissue was then transferred to a Kontes glass homogenizer (Fisher Scientific) and 0.3 ml ice cold lysis buffer was added. Samples were homogenized manually on ice for two minutes at intervals of 15 minutes. This process was continued for a period of two hours. The probe was thoroughly cleaned after each sample. The homogenate was transferred to 1 ml eppendorf tubes and centrifuged at 10,000 rpm for five minutes. The protein content of the supernatant was determined using Bradford assay with bovine serum albumin as the protein standard.
A volume corresponding to 30 μg protein of the supernatant was added to a tube containing 3 μl NuPAGE® LDS sample buffer (4×) and 1 μl NuPAGE® sample reducing agent (10×). The final volume was made up to 12 μl with distilled water, and then the samples were reduced at 95° C. for 5 minutes. Gel electrophoresis was carried out in an XCell SureLock mini cell apparatus using 12 well NuPAGE® Bis-Tris Gel for protein separation. […]
The PVDF membranes were wetted with Tris-buffered saline with 0.1% Tween-20 (TBS-T), pH 7.8 for ten minutes, and were then blocked with 5% skim milk powder in TBS-T solution for two hours. […] Chemifluorescence was detected by exposure to an autoradiography film. […] The protein content was quantified using Image J software (NIH). […]

In the case of CC(=O)N(C)C [DMA, N,N-dimethylacetamide], the “IL-10 expression in placental tissue” value is reported as “increased significantly; also recorded: enhanced expression”.
